Measurements reported in article PMC7559746 (Pharmaceutics, 2020).

Set-up: AUC0–12 h (CV%) geomean: unit not given beside the values
[1] = plasma, relative difference of geometric means
[2] = plasma, sorafenib monotherapy (day 1)

bioequivalence, with probenecid vs sorafenib monotherapy (bioequivalent when 90% CI of ratio of geometric means is within 80% and 125%): bioequivalence
RD sorafenib monotherapy vs. sorafenib + probenecid (90% CI), AUC0–12 h [1]: −5.5% (−18.0% to 8.9%)
RD sorafenib monotherapy vs. sorafenib + probenecid (90% CI), Cmax [1]: −6.1% (−21.7% to 12.7%)
RD sorafenib monotherapy vs. sorafenib + probenecid (90% CI), Ctrough [1]: −8.3% (−21.3% to 6.9%)
Cmax (CV%) geomean [2]: 12,704 (51) μg/mL
Ctrough (CV%) geomean [2]: 9159 (65) μg/mL
AUC0–12 h (CV%) geomean (plasma, sorafenib monotherapy (day 1), dose-corrected, n = 16): 120,660 (55)
increase of the ratio of sorafenib-glucuronide to sorafenib (sorafenib co-administered with probenecid vs monotherapy): 29%
decrease of geometric mean plasma AUC0–12 h with concomitant probenecid (vs sorafenib alone, decrease): 5.5%
decrease of plasma Cmax with concomitant probenecid (vs sorafenib alone, decrease): 6.1%
Substance: sorafenib-glucuronide
